According to patent publication US9266904B2, “6-bridged heteroaryldihydropyrimidines for the treatment and prophylaxis of hepatitis B virus infection” (priority 2013, dated 2016):

Experiment: Lyophilisation solubility assay (Lysa)
Type: physicochemical
Conditions: 0.05 M phosphate buffer (pH 6.5); reported as bigger than the value if more than 80% of the sample is in solution
Excerpt: The aqueous solubility is an important physico-chemical property that plays a significant role in various physical and biological processes. It is desirable to have good solubility which enables good permeability and gastric and intestinal absorption, linear dose proportionality, less PK variability, and easy formulation for PD/PK studies. At different stages of the drug discovery/development process solubility has to be determined and especially in the early phases (lead generation to lead optimization) high throughput methods are needed. Lyophilisation solubility assay (Lysa) is a well adopted high throughput assay to measure compound solubility in industry.
Samples are prepared in duplicate from 10 mM DMSO stock solutions. After evaporation of DMSO with a centrifugal vacuum evaporator, the residue is solved in 0.05 M phosphate buffer (pH 6.5), stirred for one hour and then shook for two hours. After one night, the solution is filtered using a microtiter filter plate and then the filtrate and its 1/10 dilution are then analyzed by direct UV measurement or by HPLC-UV. In addition a four-point calibration curve is prepared from the 10 mM stock solutions and used for the solubility determination of the compounds. The results are in μg/ml. […]

In the case of “2-[(1R,5R,7S)-9-[[(4S)-4-(3,4-difluoro-2-methyl-phenyl)-5-methoxycarbonyl-2-thiazol-2-yl-1,4-dihydropyrimidin-6-yl]methyl]-6,6-difluoro-3-oxa-9-azabicyclo[3.3.1]nonan-7-yl]acetic acid or 2-[(1S,5S,7R)-9-[[(4S)-4-(3,4-difluoro-2-methyl-phenyl)-5-methoxycarbonyl-2-thiazol-2-yl-1,4-dihydropyrimidin-6-yl]methyl]-6,6-difluoro-3-oxa-9-azabicyclo[3.3.1]nonan-7-yl]acetic acid [Example 132]”, the Lysa was 330 µg/mL.
